Test results as given in PubChem BioAssay AID1920062 (Sanford-Burnham Center for Chemical Genomics, 2024).
This is a selection; strong and weak results do not stand in their true shares. Some structures show a salt or complex split into parts, the way the source records it. Active and inactive are the calls of the source.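 Rule for the calls: active = activation at 10 µM reaching about 35% in either raw or pattern-adjusted values (limit read from the data); inactive = the rest.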

Amino acid sequences for entries named in this document (tags omitted).
UniProt P20594, whole entry: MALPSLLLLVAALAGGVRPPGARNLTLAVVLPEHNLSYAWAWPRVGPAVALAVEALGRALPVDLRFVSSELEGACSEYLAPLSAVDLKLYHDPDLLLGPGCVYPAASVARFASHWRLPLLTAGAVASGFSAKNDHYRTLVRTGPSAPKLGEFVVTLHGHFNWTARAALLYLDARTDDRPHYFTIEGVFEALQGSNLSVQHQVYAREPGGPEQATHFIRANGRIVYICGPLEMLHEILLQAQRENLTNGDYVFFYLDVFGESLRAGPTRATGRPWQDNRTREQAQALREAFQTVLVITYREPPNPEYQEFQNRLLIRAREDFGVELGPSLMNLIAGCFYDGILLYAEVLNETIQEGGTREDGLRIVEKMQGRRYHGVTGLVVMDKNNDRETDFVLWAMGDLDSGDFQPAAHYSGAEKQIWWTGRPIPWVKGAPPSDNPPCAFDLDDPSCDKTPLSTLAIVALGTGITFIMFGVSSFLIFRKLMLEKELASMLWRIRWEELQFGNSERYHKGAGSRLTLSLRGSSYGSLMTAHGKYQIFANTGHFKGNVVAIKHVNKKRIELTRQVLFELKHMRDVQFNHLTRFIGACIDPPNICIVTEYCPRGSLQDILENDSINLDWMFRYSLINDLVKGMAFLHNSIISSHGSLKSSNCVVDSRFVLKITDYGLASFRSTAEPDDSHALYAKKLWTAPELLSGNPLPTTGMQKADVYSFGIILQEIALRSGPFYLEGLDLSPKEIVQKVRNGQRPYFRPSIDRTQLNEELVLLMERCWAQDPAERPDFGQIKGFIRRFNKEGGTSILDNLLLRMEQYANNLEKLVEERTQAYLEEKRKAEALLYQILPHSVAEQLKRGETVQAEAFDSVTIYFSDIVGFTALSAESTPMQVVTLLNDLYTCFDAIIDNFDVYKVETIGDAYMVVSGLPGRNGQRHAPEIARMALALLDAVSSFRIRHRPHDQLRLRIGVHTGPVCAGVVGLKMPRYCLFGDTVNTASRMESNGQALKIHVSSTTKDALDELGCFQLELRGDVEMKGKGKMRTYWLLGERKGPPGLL

Biological target: Atrial natriuretic peptide receptor 2 (Homo sapiens) (UniProt P20594)
Experiment: GC-B stimulated cGMP production enhancers – HEK293 GC-B cells, cGMP TR-FRET, EC30 CNP, primary screen (AID 1920062)
Conditions: at 10 µM, stronger effect = higher value, 0% at EC30 CNP, 100% saturating CNP

SMILES	activation
COc1ccccc1-c1ccccn1.O=[N+]([O-])c1cc([N+](=O)[O-])c(O)c([N+](=O)[O-])c1	inactive: -1.77%
O=[N+]([O-])c1ccc2c(c1)C=Nc1ccccc1O2	inactive: -5.33%
Cc1cccc(C)c1OP(C)(N)=O (stereo not drawn)	inactive: 0.25%
CC(C)(C)c1ccc(OP(C)(=O)Nc2ccc(SC(F)(F)F)cc2)cc1 (stereo not drawn)	inactive: 2.22%
O=[N+]([O-])c1cc([N+](=O)[O-])c(Nc2cccnc2)c([N+](=O)[O-])c1	inactive: 14.5%
Cc1cc(C)cc(OP(C)(N)=O)c1 (stereo not drawn)	inactive: -1.26%
COc1ccc(OP(C)(=O)Nc2cccc(F)c2)cc1 (stereo not drawn)	inactive: 1.08%
COc1ccccc1OP(C)(=O)Nc1cc(Cl)ccc1C (stereo not drawn)	inactive: -7.67%
Cc1ccc(NP(C)(=O)Oc2ccccc2)c(C)c1 (stereo not drawn)	inactive: -5.62%
COc1ccccc1OP(C)(=O)Nc1ccc(C)cc1 (stereo not drawn)	inactive: -0.43%
CCOC(=O)c1ccc(NP(C)(=O)Oc2ccccc2)cc1 (stereo not drawn)	inactive: -3.41%
CP(=O)(Nc1ccccc1Br)Oc1ccccc1 (stereo not drawn)	inactive: 5.16%
COc1ccccc1OP(C)(=O)Nc1ccccc1 (stereo not drawn)	inactive: 2.48%
CP(=S)(Nn1cnnc1)Oc1ccccc1 (stereo not drawn)	inactive: 4.69%
Cc1cc(C)cc(OP(C)(=O)Nc2ccc(SC(F)(F)F)cc2)c1 (stereo not drawn)	inactive: -0.8%
CP(=O)(NC(=O)Nc1ccccc1)Oc1ccccc1 (stereo not drawn)	inactive: 2.29%
CCc1ccc(OP(C)(=O)N2CCN(c3ccc([N+](=O)[O-])cc3)CC2)cc1 (stereo not drawn)	inactive: -4.04%
CP(=O)(Oc1ccccc1)OC(c1ccccc1)C(F)(F)F (stereo not drawn)	inactive: -2.6%
CP(=O)(Nc1ccc(SC(F)(F)F)cc1)Oc1ccc(Cl)cc1 (stereo not drawn)	inactive: -0.61%
Cc1cccc(C)c1OP(C)(=O)Nc1ccc(SC(F)(F)F)cc1 (stereo not drawn)	inactive: 1.87%
CP(=O)(Nc1ccccn1)Oc1ccc(Cl)cc1 (stereo not drawn)	inactive: 8.11%
O=[N+]([O-])c1cc([N+](=O)[O-])c(O)c([N+](=O)[O-])c1.c1ccc(Oc2ccncc2)cc1	inactive: 4.07%
CCOC(=O)c1ccc(NP(C)(=O)Oc2ccc(OC)cc2)cc1 (stereo not drawn)	inactive: 2.8%
CCOP(C)(=S)SCC(=O)NC(C)C(=O)O (stereo not drawn)	inactive: -6%

SMILES	activation
CN(Cc1cccnc1)C(=O)COc1ccc(Cl)c(Cl)c1.O=[N+]([O-])c1cc([N+](=O)[O-])c(O)c([N+](=O)[O-])c1	inactive: 0.51%
O=[N+]([O-])c1cc([N+](=O)[O-])c(-n2nnc3ccccc32)c([N+](=O)[O-])c1	inactive: -0.33%
Cc1nc2ccc3ccccc3c2s1.O=[N+]([O-])c1cc([N+](=O)[O-])c(O)c([N+](=O)[O-])c1	inactive: -5.71%
O=[N+]([O-])c1cc([N+](=O)[O-])c(-c2cnn(-c3ccccc3)c2)c([N+](=O)[O-])c1	inactive: -2.79%
CCOC(=O)C(CC)C1=NC(C)(C)Cc2ccccc21.O=[N+]([O-])c1cc([N+](=O)[O-])c(O)c([N+](=O)[O-])c1 (stereo not drawn)	inactive: -1.76%
O=[N+]([O-])c1cc([N+](=O)[O-])c(Nc2nnnn2CCO)c([N+](=O)[O-])c1	inactive: 4.09%
COc1ccc(-c2ccccn2)cc1.O=[N+]([O-])c1cc([N+](=O)[O-])c(O)c([N+](=O)[O-])c1	inactive: 1.85%
CCCOc1ccc(NP(C)(=O)Oc2ccc(Cl)cc2)cc1 (stereo not drawn)	inactive: -6.25%
CP(=O)(Nc1ccc(SC(F)(F)F)cc1)Oc1ccccc1 (stereo not drawn)	inactive: -2.28%
CN1CCCCC1COC(=O)C1(O)c2ccccc2CCc2ccccc21 (stereo not drawn)	inactive: -8.71%
COc1ccccc1OP(C)(=O)Nc1c(C)cccc1C (stereo not drawn)	inactive: -3.17%
O=C(O)c1cccc(Nc2c([N+](=O)[O-])cc([N+](=O)[O-])cc2[N+](=O)[O-])c1	inactive: 5.03%
CC1=NCCc2c1[nH]c1ccccc21.O=[N+]([O-])c1cc([N+](=O)[O-])c(O)c([N+](=O)[O-])c1	inactive: 6.97%
CCOC(=O)c1ccc(NP(C)(=O)Oc2cc(C)cc(C)c2)cc1 (stereo not drawn)	inactive: -7.87%
Cc1cc(C)cc(OP(C)(=O)Nc2ccc(C)cc2C)c1 (stereo not drawn)	inactive: -6.82%
COc1ccccc1OP(C)(=O)Nc1cccc(Br)c1 (stereo not drawn)	inactive: -5.06%
Cc1ccc(C)c(NP(C)(=O)Oc2ccccc2)c1 (stereo not drawn)	inactive: -2.8%
Cc1cc(C)cc(OP(C)(=O)Nc2ccccn2)c1 (stereo not drawn)	inactive: 1.27%
CP(=O)(Nc1cccc(Br)c1)Oc1ccccc1 (stereo not drawn)	inactive: -7.37%
CP(=O)(Nc1ccccc1F)Oc1ccccc1 (stereo not drawn)	inactive: -1.62%
CC(C)c1ccc(OP(C)(=O)Nc2ccc(SC(F)(F)F)cc2)cc1 (stereo not drawn)	inactive: 10.3%
O=[N+]([O-])c1cc([N+](=O)[O-])c(Nc2ccc(Cl)cc2)c([N+](=O)[O-])c1	inactive: 3.55%
COc1ccc2c(c1O)-c1c(O)c(OC)cc3c1[C@H](C2)[N+](C)(C)CC3.O=[N+]([O-])c1cc([N+](=O)[O-])c([O-])c([N+](=O)[O-])c1[O-]	inactive: 0.54%
O=C(OC1CN2CCC1CC2)c1ccc([N+](=O)[O-])cc1 (stereo not drawn)	inactive: -8.1%
